According to patent US20040209914A1, “Aromatic sulfone hydroxamic acids and their use as protease inhibitors” (priority 2000, published 2004):
pIC50: −log10 of the molar value. Where two headings read alike, the source gives them in different places.

The chains behind the UniProt entries cited, without tags or fusion partners. Residues count along the entry.
UniProt P08253, 110-660 limits assumed: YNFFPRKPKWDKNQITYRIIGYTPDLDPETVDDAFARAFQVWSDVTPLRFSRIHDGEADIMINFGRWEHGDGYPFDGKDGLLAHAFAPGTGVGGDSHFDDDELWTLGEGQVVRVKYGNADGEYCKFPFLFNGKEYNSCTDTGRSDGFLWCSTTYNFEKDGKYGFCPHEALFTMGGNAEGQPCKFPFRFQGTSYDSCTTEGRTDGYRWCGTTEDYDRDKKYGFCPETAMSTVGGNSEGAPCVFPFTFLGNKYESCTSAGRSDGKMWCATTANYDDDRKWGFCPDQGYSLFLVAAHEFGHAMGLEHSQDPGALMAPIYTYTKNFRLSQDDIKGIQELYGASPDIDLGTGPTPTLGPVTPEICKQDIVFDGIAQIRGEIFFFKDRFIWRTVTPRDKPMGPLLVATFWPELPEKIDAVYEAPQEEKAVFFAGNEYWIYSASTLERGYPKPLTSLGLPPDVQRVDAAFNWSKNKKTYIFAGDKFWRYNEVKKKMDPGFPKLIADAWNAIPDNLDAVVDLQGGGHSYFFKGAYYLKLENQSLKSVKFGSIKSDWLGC
UniProt P03956, 100-469 limits assumed: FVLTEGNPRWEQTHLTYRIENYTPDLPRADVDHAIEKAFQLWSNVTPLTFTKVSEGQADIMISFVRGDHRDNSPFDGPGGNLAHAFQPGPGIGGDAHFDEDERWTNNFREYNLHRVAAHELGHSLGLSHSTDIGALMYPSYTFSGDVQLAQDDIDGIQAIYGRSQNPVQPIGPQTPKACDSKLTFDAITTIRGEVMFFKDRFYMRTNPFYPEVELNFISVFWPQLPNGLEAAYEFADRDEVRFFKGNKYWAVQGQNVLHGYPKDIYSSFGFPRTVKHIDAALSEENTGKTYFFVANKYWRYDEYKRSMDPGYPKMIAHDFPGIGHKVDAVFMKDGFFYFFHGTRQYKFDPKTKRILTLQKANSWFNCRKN

Experiments:
Recombinant human MMP-2 = Recombinant human MMP-2 (Homo sapiens, UniProt P08253); conditions: read-out: MMP-2 IC50, fluorogenic MCA-peptide substrate, pH 7.5, room temperature
Recombinant human MMP-13 = Recombinant human MMP-13 (Homo sapiens, UniProt P45452); conditions: read-out: MMP-13 IC50, fluorogenic MCA-peptide substrate, pH 7.5, room temperature
Recombinant human MMP-1 = Recombinant human MMP-1 (Homo sapiens, UniProt P03956); conditions: read-out: MMP-1 IC50, fluorogenic MCA-peptide substrate, pH 7.5, room temperature

SMILES	pIC50 (Recombinant human MMP-2; tested form: HCl)	pIC50 (Recombinant human MMP-13; tested form: HCl)	pIC50 (Recombinant human MMP-1; tested form: HCl)	other results
CN(C)c1ccc(C(=O)C2CCN(c3ccc(S(=O)(=O)C4(C(=O)NO)CCN(S(C)(=O)=O)CC4)cc3)CC2)cc1				pIC50 (Recombinant human MMP-2): 5.49; pIC50 (Recombinant human MMP-13): 8.47; pIC50 (Recombinant human MMP-1): < 5.00
CCN1CCC(C(=O)NO)(S(=O)(=O)c2ccc(N3CCC(C(=O)c4ccc(Cl)cc4)CC3)cc2)CC1	7.01	9.40	< 5.00	
CS(=O)(=O)N1CCC(C(=O)NO)(S(=O)(=O)c2ccc(N3CCC(C(=O)c4ccc(Cl)cc4)CC3)cc2)CC1				pIC50 (Recombinant human MMP-2): 6.99; pIC50 (Recombinant human MMP-13): 8.89; pIC50 (Recombinant human MMP-1): < 5.00
CCN1CCC(C(=O)NO)(S(=O)(=O)c2ccc(N3CCC(C(=O)c4ccc5ccccc5c4)CC3)cc2)CC1	6.39	8.72	< 5.00	
CCc1ccc(C(=O)C2CCN(c3ccc(S(=O)(=O)C4(C(=O)NO)CCN(CCOC)CC4)cc3)CC2)s1	7.39	9.70	< 5.00	
CCCc1ccc(C(=O)C2CCN(c3ccc(S(=O)(=O)C4(C(=O)NO)CCN(CCOC)CC4)cc3)CC2)s1	7.14	9.40	< 5.00	
CCN1CCC(C(=O)NO)(S(=O)(=O)c2ccc(N3CCC(C(=O)c4ccc(C)c(C)c4)CC3)cc2)CC1	5.97	8.59	< 5.00	
COCCN1CCC(C(=O)NO)(S(=O)(=O)c2ccc(N3CCC(C(=O)c4ccc(CC5CC5)cc4)CC3)cc2)CC1	7.25	9.40	< 5.00	
CN(C)CCCN1CCN(C(=O)C2CCN(c3ccc(S(=O)(=O)C4(C(=O)NO)CCOCC4)cc3)CC2)CC1				pIC50 (Recombinant human MMP-2; tested form: TFA): 5.15; pIC50 (Recombinant human MMP-13; tested form: TFA): 7.15; pIC50 (Recombinant human MMP-1; tested form: TFA): < 5.00
COCCN1CCC(C(=O)NO)(S(=O)(=O)c2ccc(N3CCC(C(=O)c4ccc(CC(C)C)s4)CC3)cc2)CC1				pIC50 (Recombinant human MMP-2; tested form: 2 HCl): 7.06; pIC50 (Recombinant human MMP-13; tested form: 2 HCl): 9.00
COCCN1CCC(C(=O)NO)(S(=O)(=O)c2ccc(N3CCC(C(=O)c4ccc(N(C)C)c(Cl)c4)CC3)cc2)CC1	6.44	8.82	< 5.00	
O=C(c1ccc(Br)s1)C1CCN(c2ccc(S(=O)(=O)C3(C(=O)NO)CCN(C4CC4)CC3)cc2)CC1	8.07	9.70	< 5.00	
C#CCN1CCC(C(=O)NO)(S(=O)(=O)c2ccc(N3CCC(C(=O)c4ccc(Cl)c(Cl)c4)CC3)cc2)CC1	7.42	9.15	< 5.00	
